# Assay results published in patent publication US10208003B2, “Synthesis of amine substituted 4,5,6,7-tetrahydrobenzothiazole compounds” (KNOPP BIOSCIENCES LLC, priority 2011, dated 2019).
# Conditions: qualitative statement
smiles,measurement,value
"CCCN[C@@H]1CCc2nc(N)sc2C1.Cl.Cl [Form A, (R)-(+)-2-amino-4,5,6,7-tetrahydro-6-(n-propylamino)benzothiazole dihydrochloride]",solubility in water,highly soluble in water
